Antibody variant affinities, Ab-14 heavy chain, assay B

Values reported by Li et al. 2023, doi:10.1038/s41467-023-39022-2 (FLAb copy).

Binding partner: SARS-CoV-2 spike HR2 peptide, sequence PDVDLGDISGINAS.

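The starting antibody came from a phage panning campaign against this peptide. Designed CDR sequences, proposed from the first random library and measured here. Their group label is 14H_GP_HC (GP: Gaussian process model; HC: hill climbing; a sequence that several methods proposed may carry one label only). AlphaSeq pools MATa yeast showing the antibodies with MATalpha yeast showing the peptide. Pairs that bind mate more often; barcode pairs of the diploids are counted by sequencing. Read counts were normalised to the haploid input and turned into Kd by a linear fit to BCL2-family pairs of known affinity, for each replicate. Each pool was mated in six replicate cultures.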

Ab-14 is the parent antibody, in scFv form: VH, then a 15-residue (Gly4Ser)3 linker, then VL. The light chain is unchanged in all variants.
VH: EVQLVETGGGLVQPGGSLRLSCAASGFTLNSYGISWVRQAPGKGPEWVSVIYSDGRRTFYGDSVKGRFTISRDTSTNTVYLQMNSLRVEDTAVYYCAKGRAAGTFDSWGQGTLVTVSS
VL: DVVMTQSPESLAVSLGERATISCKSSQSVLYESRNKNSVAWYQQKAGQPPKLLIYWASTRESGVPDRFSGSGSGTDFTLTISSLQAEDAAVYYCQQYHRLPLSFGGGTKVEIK

The parent's heavy chain CDRs are GFTLNSYGIS, VIYSDGRRTFYGDSVK, GRAAGTFDS; each variant's own CDRs replace them letter for letter. Values are log10 of the apparent Kd in nM; lower means stronger binding. Averages over replicates are reported, and they cover detected replicates only. "n.d." marks a missing value. The strain was present, yet no cells mated with the target were sequenced in that replicate, which points to weak or no binding. The authors averaged sequences with at least three values out of six and counted those with two or fewer as poor binders.

CDR-H1 | CDR-H2 | CDR-H3 | log10 Kd, replicates | mean, log10 nM | control signals
GFPLNEYGIS | VIYADGRRTFYGDSVK | GEAAGTFDS | -0.10 -0.45 -0.52 -0.46 -0.57 -0.51 | -0.43 | 2/18 (3.03)
GFQLNSYGIS | VIYADGRRTFYGDSVK | GRAADTNDS | n.d. n.d. n.d. n.d. n.d. n.d. | n.d. | 0/18
LFSLNEYGIS | VIYSDGRRTFYRDSVK | GRTAGTFDS | 2.84 n.d. 2.05 2.12 2.99 2.42 | 2.48 | 0/18
FFSLNEYGIS | VIYSDGRRTFYGDSVK | GRAAVTFDQ | n.d. n.d. n.d. n.d. n.d. n.d. | n.d. | 0/18
GFDLNSYGIS | VIYSDGRRTFYHDSVK | GRAAVTFDS | n.d. n.d. n.d. n.d. n.d. n.d. | n.d. | 0/18
GFTLNEYGIS | VIYSDGRRTFYGDSVK | GRAADTFDK | n.d. n.d. n.d. n.d. n.d. n.d. | n.d. | 0/18
GFTLNSYGIS | VIYSDGRRTFYSDSVK | GMAAGTFDR | 3.05 1.84 1.59 1.97 2.72 2.68 | 2.31 | 0/18
GFQLNDYGIS | VIYSDGRRTFYGDSVK | GRAAGTFDD | 2.04 1.60 n.d. 1.90 1.23 0.91 | 1.54 | 0/18
GFQLNSYGIS | VIYSDGRRTFYGDSVK | GRDAGTFDS | 1.62 1.57 n.d. n.d. 4.23 n.d. | 2.47 | 0/18
GWTLNEYGIS | VIYSDGRRTFYGDSVK | GRTAGTFDG | n.d. n.d. n.d. n.d. 1.35 n.d. | 1.35 | 0/18
GFTLNSYGIS | VIYSDGRRTAYDDSVK | GQTAGTFDS | 0.63 0.49 0.10 -0.28 0.10 0.06 | 0.18 | 0/18
GFGLNEYGIS | VIYSDGRRTFYHDSVK | GRAAVTFDQ | 1.53 n.d. n.d. n.d. n.d. n.d. | 1.53 | 0/18
GFTLNEYGIS | VIYSDGRRTFYSDDVK | GRFAGTFDS | 0.39 0.61 0.22 0.14 0.29 0.72 | 0.39 | 0/18
KFTLNEYGIS | VIYSDGRRTFYTDSVK | GRCAGTFDS | 0.78 n.d. n.d. 1.63 1.98 1.34 | 1.43 | 0/18
GYTLNEYGIS | VIYSDGRRTMYSDSVK | GRAAGTFDS | n.d. 2.43 n.d. n.d. 2.15 n.d. | 2.29 | 0/18
GFTLNSYGIS | VIYSDGMRTFYSDSVK | GSTAGTFDS | 0.62 0.73 0.65 0.61 1.04 n.d. | 0.73 | 0/18
GFDLNSYGIS | VIYSDGRRTFYSDSVK | GQAGGTFDS | n.d. 2.14 2.73 n.d. 1.72 2.13 | 2.18 | 0/18
GFTLNEYGIS | VIYSDGRRTFYWDSVK | GRAAVTFDT | n.d. n.d. n.d. n.d. n.d. n.d. | n.d. | 0/18
GFSLNEYGIS | VIYSDGRRTFYGDSVK | GRAAETFDQ | n.d. n.d. n.d. n.d. 3.75 n.d. | 3.75 | 2/18 (2.00)
GFELNDYGIS | VIYSDGRRTFYGDSVK | GRAAGTFDI | 1.13 0.62 0.63 0.21 0.17 0.87 | 0.61 | 0/18
GFTLNEYGIS | VIYSDGRRTFYGDSVK | GFAAGTFDT | 0.47 0.05 0.53 0.23 0.15 0.90 | 0.39 | 0/18
GFTLNSYGIS | VIYSDGRRTFYEDSVK | GQVAGTFDS | -1.10 -0.79 -0.41 -1.33 -0.88 0.03 | -0.75 | 0/18
GFDLNEYGIS | VIYSDGRRTFYKDSVK | GRAAGTFDS | n.d. 1.24 1.06 0.77 1.09 1.59 | 1.15 | 1/18 (1.86)
GFWLNDYGIS | VIYADGRRTFYGDSVK | GHAAGTFDS | 0.00 0.26 -0.19 -0.21 -0.16 -0.11 | -0.07 | 0/18
GFTLNDYGIS | VIYSDGRRTFYGDSVK | GRAAGTFRI | n.d. n.d. n.d. n.d. n.d. n.d. | n.d. | 0/18
KFTLNEYGIS | VIYSDGRRTFYGDSVK | GRAAVTFDV | n.d. n.d. n.d. n.d. n.d. n.d. | n.d. | 0/18
GFTLESYGIS | VIYADGRRTFYGDCVK | GRAAGTFKS | n.d. n.d. n.d. n.d. n.d. n.d. | n.d. | 0/18
GFQLNDYGIS | VIYSDGRRTFYIDEVK | GKAAGTFDS | n.d. n.d. n.d. n.d. n.d. n.d. | n.d. | 0/18
GFTLNEYGIS | VIYSDGRRTFYTDSVK | GREAGTFIS | n.d. n.d. n.d. n.d. n.d. n.d. | n.d. | 0/18
GFTLNSYGIS | VIYSDGRRTFYADSVK | GQLAGTFDT | 0.13 0.27 0.82 0.59 0.30 0.21 | 0.39 | 0/18
GFSLNEYGIS | VIYSDGRRTFYKDSVK | GRMAGTFDS | 0.04 -0.19 -0.20 -0.01 0.08 0.04 | -0.04 | 0/18
GFDLNSYGIS | VIYSDGRRTFYGDSVK | GRWAGTFNS | n.d. n.d. n.d. n.d. -0.06 n.d. | -0.06 | 0/18
GFTLNDYGIS | VIYSDGRRTFYGDSVK | GKEAGTFDS | -0.32 -0.18 -0.30 -0.51 -0.43 -0.23 | -0.33 | 0/18
GFQLNDYGIS | VIYSDGRRTFYIDPVK | GKAAGTFDS | n.d. n.d. 0.74 n.d. n.d. n.d. | 0.74 | 0/18
GFCLNEYGIS | VIYSDGRRTFYADSVK | GRAAGTFDE | 2.03 1.51 1.49 0.65 2.00 1.11 | 1.47 | 1/18 (2.61)
GFNLNSYGIS | VIYSDGRRTFYTDRVK | GEAAGTFDS | 1.75 3.80 2.40 2.26 1.79 1.62 | 2.27 | 0/18
GFELNEYGIS | VIYSDGRRTFYGDSVK | GRAADTFDQ | n.d. n.d. n.d. n.d. n.d. n.d. | n.d. | 0/18
GFTLNSYGIS | VIYSDGRRTFYTDSVK | GMNAGTFDS | 1.22 0.29 0.49 1.45 1.31 0.98 | 0.95 | 0/18
GFTLESYGIS | VIYSDGRRTFYGDSVK | GRAAGTFTL | n.d. n.d. n.d. n.d. n.d. n.d. | n.d. | 0/18
LFTLNEYGIS | VIYSDGRRTFYRDSVK | GRTAGTFDS | n.d. -0.53 -0.77 0.85 0.50 -0.61 | -0.12 | 0/18
GFTLNSYGIS | VIYSDGRRTFYTDSVK | GAEAGTFDS | 0.11 -0.17 0.00 -0.24 0.17 0.36 | 0.04 | 0/18
GFTLNEYGIS | VIYSDGRRTQYMDSVK | GRAAGTFDS | -0.05 0.13 1.29 0.03 1.68 n.d. | 0.62 | 0/18
GFTLNEYGIS | VIYSDGRRTFYRDSVK | GRTAGTFDS | -0.17 0.10 0.78 -0.36 0.08 0.29 | 0.12 | 0/18
GFTLNSYGIS | VIYADGRRTFYGDSVK | GRAAGTFCK | n.d. n.d. n.d. n.d. n.d. n.d. | n.d. | 0/18
GFELNEYGIS | VIYSDGRRTFYGDSVK | GRAAGTFDE | 0.47 0.31 1.04 0.33 0.33 0.42 | 0.48 | 0/18
GFTLNEYGIS | VIYSDGRRTFYGDSVK | GRMAGTFDG | 1.29 1.39 n.d. 1.52 1.18 1.95 | 1.47 | 1/18 (2.23)
GFTLNDYGIS | VIYSDGRRTHYKDSVK | GRAAGTFDS | 2.05 n.d. 1.33 n.d. n.d. n.d. | 1.69 | 0/18
GFTLNEYGIS | VIYSDGRRTFYGDSVK | GEQAGTFDS | 0.95 1.78 1.62 0.47 0.08 1.54 | 1.07 | 0/18
GFTLNSYGIS | VIYSDGRRTFYSDSVK | GEAAGIFDT | 0.78 2.17 1.38 1.19 1.36 1.13 | 1.33 | 0/18
GFSLNEYGIS | VIYSDGRRTFYSDSVK | GQPAGTFDS | 0.12 0.10 -0.16 -0.09 0.34 -0.07 | 0.04 | 0/18
GFTLKSYGIS | VIYSDGRRTFYADSVK | GKLAGTFDS | n.d. 1.92 n.d. 0.52 2.33 1.70 | 1.62 | 0/18

The first 3 entries again:

CDR-H1 | CDR-H2 | CDR-H3 | log10 Kd, replicates | mean, log10 nM | control signals
GFPLNEYGIS | VIYADGRRTFYGDSVK | GEAAGTFDS | -0.10 -0.45 -0.52 -0.46 -0.57 -0.51 | -0.43 | 2/18 (3.03)
GFQLNSYGIS | VIYADGRRTFYGDSVK | GRAADTNDS | n.d. n.d. n.d. n.d. n.d. n.d. | n.d. | 0/18
LFSLNEYGIS | VIYSDGRRTFYRDSVK | GRTAGTFDS | 2.84 n.d. 2.05 2.12 2.99 2.42 | 2.48 | 0/18

Values of this round are not directly comparable with the first-round values of the same sequences. As a blank, each scFv also met three strains without target: over all heavy chain designs, 1% of these pairings were detected, typically at 2.08 and seldom below 0.84. Also given: how often the same scFv was detected with the empty control strains, with their mean in brackets. Of ten entries with the parent sequence, four were seen in most replicates (averages 0.34 to 2.37), three in one and three in none, so single entries are noisy.